Bioassay records deposited in PubChem BioAssay by several laboratories.
Yeast UUG start-1 – alters start codon recognition fidelity in yeast | S. cerevisiae UUG-firefly luciferase reporter, luminescence/redox ratio | activity score, % at 18.7 µM | 350,000 compounds, 0.13% hits | AID 602363;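 active = replicate mean at a twofold rise or more, about +100% in these data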;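 note: firefly luciferase made from a UUG start codon reports start codon fidelity; reporter light over untreated wells divided by growth signal over untreated wells; some hits fall short of that in this replicate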
eIF4H inh – human eIF4H binding inhibitors, primary screen, translation initiation inhibitor project, biochemical, uHTS, fluorescence polarization | Eukaryotic translation initiation factor 4H (Homo sapiens), Q15056 | eIF4H fluorescence polarization binding assay | inhibition, % at 35 µM | 0.94% of 290,000 active | AID 2012, 2009;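 also: calls also rest on retests at 20 µM and on dose response follow-up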
DSG3 Ab inh – inhibitors of pemphigus antibody binding to DSG3, primary screen, biochemical, bead-based, flow cytometry, scFv-GFP | 0.48% of 310,000 active | Desmoglein-3 (Homo sapiens), P32926 | AID 588358, 2011 | DSG3-coupled beads, scFv-anti-DSG3-GFP binding; hits give low values | binding (percent of control), % at 10 µM;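 active = binding more than 3 SD below its plate's average and above zero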;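 also: hits lower antibody fragment binding to DSG3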
PABP FP inh – PABP poly(A) RNA binding inhibitors, primary screen, biochemical, fluorescence polarization, uHTS; Polyadenylate-binding protein 1 (Homo sapiens), P11940; calls only at 35 µM; AID 2014, 2009; 1% of 290,000 active;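 also: calls also rest on retests at 20 µM and on dose response follow-up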
PABP1 MLLE inh – inhibitors of PABP1 MLLE–PAM2 peptide binding, primary screen, biochemical, fluorescence polarization, FITC-PAM2, GST-MLLE | inhibition, % at 20 µM | AID 588489, 2011 | Polyadenylate-binding protein 1 (Homo sapiens), P11940 | 0.36% of 360,000 active; in the data active = inhibition above about 35%, passing the limit was not always enough;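 also: plate controls were DMSO wells with GST-MLLE for no effect and wells lacking GST-MLLE protein for full effect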
Yeast UUG start-2 – enhancers of UUG start codon usage in yeast, dose response, S. cerevisiae, UUG firefly luciferase, cherry-pick, set 2 | luminescence, 4 h; 100% means double the DMSO signal | 540 tested, under 10 active | activation, % at 38 µM | AID 652061, 2013 | shares compounds with Yeast UUG start-1;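 active = signal increase whose fitted curve reaches an absolute level of 40 at a concentration under 10 µM; inactive = activity opposite to the expected increase, or the rest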
* = called active by the depositor; i = inactive; nt = no result given. The list is not random: actives were taken first. Their share in the collection is about 1.5%. Unless noted, no rule for the calls is given here.

Amino acid sequences for entries named in this document (tags omitted).
Polyadenylate-binding protein 1 (Homo sapiens), P11940, UniProt P11940, whole entry, looked up: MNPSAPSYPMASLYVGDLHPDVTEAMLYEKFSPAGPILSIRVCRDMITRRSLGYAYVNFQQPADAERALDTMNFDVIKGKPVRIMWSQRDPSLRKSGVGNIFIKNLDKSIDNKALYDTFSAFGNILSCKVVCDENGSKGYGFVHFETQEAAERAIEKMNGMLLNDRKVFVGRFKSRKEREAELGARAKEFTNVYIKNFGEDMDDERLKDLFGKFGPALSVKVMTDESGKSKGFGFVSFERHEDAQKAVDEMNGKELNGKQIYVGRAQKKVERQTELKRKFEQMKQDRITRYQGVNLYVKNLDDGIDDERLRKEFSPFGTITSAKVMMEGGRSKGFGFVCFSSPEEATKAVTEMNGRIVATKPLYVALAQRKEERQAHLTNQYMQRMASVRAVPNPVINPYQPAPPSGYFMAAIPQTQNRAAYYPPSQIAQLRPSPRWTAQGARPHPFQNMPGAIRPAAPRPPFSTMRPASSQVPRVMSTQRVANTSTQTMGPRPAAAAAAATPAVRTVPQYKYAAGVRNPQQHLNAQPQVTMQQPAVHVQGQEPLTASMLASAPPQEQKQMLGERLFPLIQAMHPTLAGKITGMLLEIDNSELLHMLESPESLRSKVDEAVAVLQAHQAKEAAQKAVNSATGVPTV

1: CC(C)c1cn(CC[C@@H]2CC[C@H](NC(=O)C3CCCCC3)[C@H](CO)O2)nn1
2: C[C@H](CO)N1C[C@H](C)[C@@H](CN(C)C(=O)Nc2ccc3c(c2)OCO3)Oc2ccc(NC(=O)Cc3ccccc3)cc2CC1=O
3: C[C@H]1CCCCO[C@H](CN(C)C(=O)c2ccncc2)[C@@H](C)CN([C@@H](C)CO)C(=O)c2cc(NC(=O)Cc3ccccc3)ccc2O1
4: CC(C)CC#Cc1cnc2c(c1)C(=O)N([C@@H](C)CO)C[C@@H](C)[C@@H](CN(C)C(=O)Cc1ccncc1)O2
5: Cc1c(P(=O)(c2ccccc2)c2ccccc2)c2ccccc2n1C
6: CCCC#Cc1cnc2c(c1)C(=O)N([C@@H](C)CO)C[C@H](C)[C@@H](CN(C)C(=O)C1CCCCC1)O2
7: CC(C)CC#Cc1cnc2c(c1)C(=O)N([C@H](C)CO)C[C@@H](C)[C@H](CN(C)Cc1ccccn1)O2
8: C/C=C/c1cnc2c(c1)C(=O)N([C@@H](C)CO)C[C@@H](C)[C@@H](CN(C)C(=O)Cc1ccccn1)O2
compound no.,1,2,3,4,5,6,7,8
Yeast UUG start-1,100*,19,26,-6,173*,1,144*,143*
eIF4H inh,nt,nt,nt,nt,nt,nt,nt,nt
DSG3 Ab inh,nt,nt,nt,nt,nt,nt,nt,nt
PABP FP inh,nt,nt,nt,nt,nt,nt,nt,nt
PABP1 MLLE inh,nt,nt,nt,nt,-37,nt,nt,nt
Yeast UUG start-2,i,nt,nt,nt,2,nt,i,i

Compound profiles, as listed above. Order of screens: Yeast UUG start-1	eIF4H inh	DSG3 Ab inh	PABP FP inh	PABP1 MLLE inh	Yeast UUG start-2
Entry for `CC(C)c1cn(CC[C@@H]2CC[C@H](NC(=O)C3CCCCC3)[C@H](CO)O2)nn1` = 100*	nt	nt	nt	nt	i
Entry for `CCCC#Cc1cnc2c(c1)C(=O)N([C@@H](C)CO)C[C@H](C)[C@@H](CN(C)C(=O)C1CCCCC1)O2` = 1	nt	nt	nt	nt	nt
Entry for `CC(C)CC#Cc1cnc2c(c1)C(=O)N([C@H](C)CO)C[C@@H](C)[C@H](CN(C)Cc1ccccn1)O2` = 144*	nt	nt	nt	nt	i
Entry for `C/C=C/c1cnc2c(c1)C(=O)N([C@@H](C)CO)C[C@@H](C)[C@@H](CN(C)C(=O)Cc1ccccn1)O2` = 143*	nt	nt	nt	nt	i

Other entries:
9: C/C=C/c1cnc2c(c1)C(=O)N([C@H](C)CO)C[C@H](C)[C@@H](CN(C)C(=O)Cc1ccccn1)O2
10: CCCN(C)C[C@H]1Oc2cc(C#CCOC)ccc2S(=O)(=O)N([C@@H](C)CO)C[C@H]1C
11: Cc1cccc(NC(=O)Cc2cccs2)n1
12: COc1ccc(NC(=O)N[C@H]2CC[C@H](CCNC(=O)CCN3CCCCC3)O[C@H]2CO)cc1
13: COc1ccc(S(=O)(=O)N(C)C[C@@H]2Oc3c(NC(=O)C4CCOCC4)cccc3C(=O)N([C@H](C)CO)C[C@H]2C)cc1
14: CCNC(=O)C[C@@H]1C=C[C@H](NS(=O)(=O)c2ccc(C)cc2)[C@@H](CO)O1
15: Cc1cc(=O)[nH]c(=O)n1Cc1ccccc1
16: O=C(NCC1CC1)[C@@H]1N[C@@H]2c3ccc(-c4ccccc4F)c(=O)n3C[C@@H]2[C@H]1CO
compound no.,9,10,11,12,13,14,15,16
Yeast UUG start-1,3,6,542*,-5,0,-11,196*,-2
eIF4H inh,nt,nt,2,nt,nt,nt,-6,nt
DSG3 Ab inh,nt,nt,101,nt,nt,nt,nt,nt
PABP FP inh,nt,nt,i,nt,nt,nt,i,nt
PABP1 MLLE inh,nt,nt,0,nt,nt,nt,1,nt
Yeast UUG start-2,nt,nt,2,nt,nt,nt,1,nt

17: CO[C@H]1CN(C)C(=O)c2ccc(NC(=O)c3nc4ccccc4s3)cc2OC[C@@H](C)N(Cc2ccncc2)C[C@H]1C
18: O=C(O)C(c1ccccc1)C(c1ccccc1)c1ccccc1 (configuration not stated)
19: O=C(c1cc(Cl)cc(Cl)c1)N1CCC2CC1c1cc(-c3ccc4c(c3)OCO4)ccc12 (configuration not stated)
20: CCC(=O)Nc1ccc2c(c1)OC[C@@H](C)N(C(=O)C1CCC1)C[C@@H](C)[C@@H](OC)CN(C)C2=O
21: CCCc1nc2ccc(C)cn2c1Cc1ccccc1C(F)(F)F
22: CCCc1nc2ccc(C)cn2c1Cc1ccccc1OC
23: Cc1c(C(=O)C(C)C)n(C)c2ccccc12
24: Cn1c(C(=O)O)c(C=O)c2ccccc21
compound no.,17,18,19,20,21,22,23,24
Yeast UUG start-1,140*,431*,active,5,105*,45,435*,-9
eIF4H inh,nt,18,nt,nt,nt,nt,-2,-12
DSG3 Ab inh,nt,95,100,nt,nt,nt,107,105
PABP FP inh,nt,i,nt,nt,nt,nt,i,i
PABP1 MLLE inh,nt,2,9,nt,3,7,-3,-2
Yeast UUG start-2,i,2,9,nt,0,nt,18,nt

25: O=[N+]([O-])c1cc(C(F)(F)F)ccc1Oc1cccnc1[N+](=O)[O-]
26: O=C(Nc1ccc(F)cc1)c1ccccc1Oc1ccc(C(F)(F)F)cc1[N+](=O)[O-]
27: C[C@@H]1CCCCO[C@@H](CN(C)CC2CCCCC2)[C@H](C)CN([C@H](C)CO)C(=O)c2cc(NC(=O)Cc3ccccc3)ccc2O1
28: COC(=O)c1c2oc(c1C(=O)OC)C(=O)N[C@@H](Cc1ccccc1)Cn1cc(nn1)CNC(=O)[C@H](Cc1ccccc1)NC(=O)N[C@@H](CO)CC2
29: COC(=O)C1=C2CC[C@H](CO)NC(=O)N[C@H](Cc3ccccc3)C(=O)NCc3cn(nn3)C[C@@H](Cc3ccccc3)NC(=O)c3oc(c(C(=O)OC)c3C(=O)OC)CC[C@H](CO)NC(=O)N[C@H](Cc3ccccc3)C(=O)NCc3cn(nn3)C[C@@H](Cc3ccccc3)NC(=O)C(=C1C(=O)OC)O2
30: COC(=O)c1c2oc(c1C(=O)OC)C(=O)N(C)Cc1cn(nn1)C[C@H](Cc1ccccc1)NC(=O)N[C@H](CO)CC2
31: COC(=O)c1c2oc(c1C(=O)OC)C(=O)N[C@H](Cc1ccccc1)Cn1cc(nn1)CNC(=O)[C@H](Cc1ccccc1)NC(=O)N[C@@H](CO)CC2
32: CN(C)CCCNC(=O)C[C@@H]1CC[C@@H]2[C@@H](COc3ccc(NC(=O)c4ccc5c(c4)OCO5)cc3C(=O)N2C)O1
compound no.,25,26,27,28,29,30,31,32
Yeast UUG start-1,190*,nt,18,113*,63,41,216*,6
eIF4H inh,-2,-4,nt,nt,nt,nt,nt,nt
DSG3 Ab inh,96,102,nt,nt,nt,nt,nt,nt
PABP FP inh,i,i,nt,nt,nt,nt,nt,nt
PABP1 MLLE inh,-8,7,nt,nt,nt,nt,nt,nt
Yeast UUG start-2,17,nt,nt,i,nt,nt,i,nt

33: C[C@H]1CCCCO[C@@H](CN(C)C(=O)c2ccccc2)[C@@H](C)CN([C@@H](C)CO)C(=O)c2cc(NS(=O)(=O)c3ccc(Cl)cc3)ccc2O1
34: Cc1cc(N2CCOCC2)nc2ccc(NC(=O)C3CCCCC3)cc12
35: Cc1cc(N2CCOCC2)nc2ccc(NC(=S)N3CCCCC3C)cc12 (configuration not stated)
36: C[C@H](CO)N1C[C@H](C)[C@@H](CN(C)Cc2ccc(-c3ccccc3)cc2)Oc2ccc(N(C)C)cc2C1=O
37: CC12CCC(C(=O)N(CC(O)CN3CCN(Cc4ccccc4)CC3)C1=O)C2(C)C (configuration not stated)
38: C[C@H]1CN([C@@H](C)CO)C(=O)c2cccc(NC(=O)C3CCCCC3)c2O[C@H]1CN(C)C(=O)Nc1ccc(C(F)(F)F)cc1
39: Cc1noc(C)c1S(=O)(=O)Nc1cccc2c1O[C@H](CN(C)S(=O)(=O)c1cccs1)[C@H](C)CN([C@@H](C)CO)C2=O
40: Cc1cc(-n2c(C)cc(C(=O)CSc3nncn3C(C)C)c2C)no1
41: Cc1cc(-n2c(C)cc(C(=O)CSc3nncn3C)c2C)no1
42: CCCc1cc(C(=O)N/N=C/c2ccc(CC)s2)c2ccccc2n1
compound no.,33,34,35,36,37,38,39,40,41,42
Yeast UUG start-1,7,-11,143*,-10,102*,3,-3,nt,-24,413*
eIF4H inh,nt,nt,-6,nt,17,nt,nt,nt,nt,-4
DSG3 Ab inh,nt,nt,91,nt,113,nt,nt,102,125,101
PABP FP inh,nt,nt,i,nt,i,nt,nt,nt,nt,i
PABP1 MLLE inh,nt,7,-14,nt,-15,nt,nt,-12,-48,-6
Yeast UUG start-2,nt,nt,0,nt,-5,nt,nt,4,nt,0
